Tests used:
[1] = system: LL/2-M1 cells (subline of LL/2 Lewis lung carcinoma cells); assay: LL/2-M1 subcutaneous tumor growth in C57BL/6 mice; format: in vivo
[2] = system: angiogenesis/capillary network formation; details: Alliegro et al. 1991; cited from earlier work
[3] = system: tumor metastasis; details: Kellen et al. 1988; cited from earlier work

Cl.N=C(N)c1cc2c(I)cccc2s1 [Compound 5, 4-Iodobenzo[b]thiophene-2-carboxamidine hydrochloride]
subcutaneous LL/2-M1 tumor growth ([1]; 0.5 mg/ml in drinking water plus 30 mg/kg i.p. daily Monday-Friday, FIG. 5): inhibited | Differences in lung metastasis number versus control ([1]; Table 6): not statistically significant | Mean lung mets/mouse ([1]; Table 6, lungs after euthanasia, day 21): 17.5 mets/mouse | mice that had developed measurable s.c. tumors ([1]; by day 13): 95%

N=C(N)NC(=O)c1nc(Cl)c(N)nc1N [amiloride]
angiogenesis/capillary network formation in vitro [2]: inhibit | tumor metastasis in vivo [3]: inhibit

Source: US5340833A, “Urokinase inhibitors” (Eisai Co., Ltd., priority 1992, dated 1994)
